Literature values in US6838436B1, “Inhibitors of proteasomal activity for stimulating bone growth” (Osteoscreen Inc., priority 1998, dated 2005).

Target: cathepsin B (Homo sapiens, UniProt P07858)
Settings: cited from earlier work

In the case of `CC[C@H](C)[C@H](NC(=O)[C@H]([C@@H](C)CC)N(C)C(C)=O)C(=O)N[C@H](C(=O)N[C@@H](CC(C)C)C(=O)[C@@]1(C)CO1)[C@@H](C)O` [Epoxomicin], the “concentration up to which no inhibition appears” value is given as over 50 µM.
